Results taken from US12398154B2, “Azaquinazoline pan-KRas inhibitors” (Mirati Therapeutics, Inc., priority 2020, dated 2025).

Protein sequences, listed by entry. Tags and fused reporters are not part of them. Lines headed by an entry give the natural chain unless they say otherwise; changes in a name come on top.
UniProt P01116: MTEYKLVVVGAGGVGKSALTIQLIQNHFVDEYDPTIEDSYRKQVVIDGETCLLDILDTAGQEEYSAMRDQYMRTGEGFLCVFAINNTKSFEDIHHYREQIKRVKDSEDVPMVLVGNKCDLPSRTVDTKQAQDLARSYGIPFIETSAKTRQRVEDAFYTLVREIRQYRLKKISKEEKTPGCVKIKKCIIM

Legend:
KRas Q61H = target: T1, KRas Q61H (Homo sapiens, UniProt P01116, Q61H); assay: KRas binding assay (TR-FRET displacement); settings: TR-FRET tracer displacement, 60-minute incubation at room temperature;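 also: TR-FRET signal read after one hour at room temperature, IC50 derived by four-parameter fitting of percent-of-control values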
T1 construct: Biotinylated KRas (corresponding to amino acids 1-169, produced at Accelegan Inc.); biotin (biotinylated); purchased Accelegan Inc

KRas G13D = target: T2, KRas G13D (Homo sapiens, UniProt P01116, G13D); assay: KRas binding assay (TR-FRET displacement); settings: TR-FRET tracer displacement, 60-minute incubation at room temperature;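 also: One-hour room temperature incubation before TR-FRET reading, IC50 from a four-parameter curve fit to percent-of-control data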
T2 construct: Biotinylated KRas (corresponding to amino acids 1-169, produced at Accelegan Inc.); biotin (biotinylated); purchased Accelegan Inc

Which results are given for `CNc1cc2n(n1)CCCN(c1nc(OCC34CCCN3CCC4)nc3c(F)c(-c4cccc5cccc(F)c45)ncc13)C2` [Example 263, 5-(8-fluoro-7-(8-fluoronaphthalen-1-yl)-2-((tetrahydro-1H-pyrrolizin-7a(5H)-yl)methoxy)pyrido[4,3-d]pyrimidin-4-yl)-N-methyl-5,6,7,8-tetrahydro-4H-pyrazolo[1,5-a][1,4]diazepin-2-amine]?
IC50 (KRas Q61H): 12.1 µM; IC50 (KRas G13D): 11 µM

For `O=C1CC2(CCCN(c3nc(OCC45CCCN4CCC5)nc4c(F)c(-c5cccc6cccc(F)c56)ncc34)C2)C(=O)N1` (stereo not drawn) [Example 265, 7-(8-fluoro-7-(8-fluoronaphthalen-1-yl)-2-((hexahydro-1H-pyrrolizin-7a-yl)methoxy)pyrido[4,3-d]pyrimidin-4-yl)-2,7-diazaspiro[4.5]decane-1,3-dione], which IC50 (KRas Q61H) is on record?
The IC50 was 3.19 µM.

What about the IC50 (KRas G13D) of the same molecule?
The IC50 was 2.38 µM.

`O=C1NC(=O)C2(CCCCN(c3nc(OCC45CCCN4CCC5)nc4c(F)c(-c5cccc6cccc(F)c56)ncc34)C2)N1` (stereo not drawn) [Example 267, 7-(8-fluoro-7-(8-fluoronaphthalen-1-yl)-2-((hexahydro-1H-pyrrolizin-7a-yl)methoxy)pyrido[4,3-d]pyrimidin-4-yl)-1,3,7-triazaspiro[4.6]undecane-2,4-dione] was tested. Which IC50 (KRas Q61H) did it give?
Its IC50 is 2.43 µM.

What about the IC50 (KRas G13D) of the same molecule?
The IC50 was 1.37 µM.

With `OCC1CN(c2nc(OCC34CCCN3CCC4)nc3c(F)c(-c4cccc5cccc(F)c45)ncc23)CCCO1` (stereo not drawn) [Example 269, (4-(8-fluoro-7-(8-fluoronaphthalen-1-yl)-2-((hexahydro-1H-pyrrolizin-7a-yl)methoxy)pyrido[4,3-d]pyrimidin-4-yl)-1,4-oxazepan-2-yl)methanol] as the molecule, how does the IC50 (KRas Q61H) read?
Its IC50 is 1.83 µM.

What about the IC50 (KRas G13D) of the same molecule?
Its IC50 is 1.49 µM.

With `O=C1NC(=O)C2(COCCN(c3nc(OCC45CCCN4CCC5)nc4c(F)c(-c5cccc6cccc(F)c56)ncc34)C2)N1` (stereo not drawn) [Example 272, 10-(8-fluoro-7-(8-fluoronaphthalen-1-yl)-2-((hexahydro-1H-pyrrolizin-7a-yl)methoxy)pyrido[4,3-d]pyrimidin-4-yl)-7-oxa-1,3,10-triazaspiro[4.6]undecane-2,4-dione] as the molecule, how does the IC50 (KRas Q61H) read?
Its IC50 is 0.144 µM.

What about the IC50 (KRas G13D) of the same molecule?
Its IC50 is 0.134 µM.

Which results are given for `O=C1C[C@@]2(CCN(c3nc(OCC45CCCN4CCC5)nc4c(F)c(-c5cccc6cccc(F)c56)ncc34)C2)CN1` [Example 280, (S)-7-(8-fluoro-7-(8-fluoronaphthalen-1-yl)-2-((hexahydro-1H-pyrrolizin-7a-yl)methoxy)pyrido[4,3-d]pyrimidin-4-yl)-2,7-diazaspiro[4.4]nonan-3-one]?
IC50 (KRas Q61H): ≥ 100 µM; IC50 (KRas G13D): ≥ 100 µM

What does the source list for `NS(=O)(=O)CC1CCCN(c2nc(OCC34CCCN3CCC4)nc3c(F)c(-c4cccc5cccc(Cl)c45)ncc23)C1` (stereo not drawn) [Example 281, 1-(1-(7-(8-chloronaphthalen-1-yl)-8-fluoro-2-((tetrahydro-1H-pyrrolizin-7a(5H)-yl)methoxy)pyrido[4,3-d]pyrimidin-4-yl)piperidin-3-yl)methanesulfonamide]?
IC50 (KRas Q61H): 0.051 µM; IC50 (KRas G13D): 0.125 µM

Which IC50 (KRas Q61H) does the source give for `O=C1NC(=O)C2(CCCN(c3nc(OCC45CCCN4CCC5)nc4c(F)c(-c5cccc6cccc(Cl)c56)ncc34)C2)N1` (stereo not drawn) [Example 282, 7-(7-(8-chloronaphthalen-1-yl)-8-fluoro-2-((hexahydro-1H-pyrrolizin-7a-yl)methoxy)pyrido[4,3-d]pyrimidin-4-yl)-1,3,7-triazaspiro[4.5]decane-2,4-dione] here?
Its IC50 is 0.017 µM.

And the IC50 (KRas G13D)?
Its IC50 is 0.018 µM.

Which results are given for `O=C1CC2(CCCN(c3nc(OCC45CCCN4CCC5)nc4c(F)c(-c5cccc6cccc(Cl)c56)ncc34)C2)N1` (stereo not drawn) [Example 283, 6-(7-(8-chloronaphthalen-1-yl)-8-fluoro-2-((tetrahydro-1H-pyrrolizin-7a(5H)-yl)methoxy)pyrido[4,3-d]pyrimidin-4-yl)-1,6-diazaspiro[3.5]nonan-2-one]?
IC50 (KRas Q61H): 0.142 µM; IC50 (KRas G13D): 0.157 µM

Which IC50 (KRas Q61H) does the source give for `O=C1NCC2(CCCN(c3nc(OCC45CCCN4CCC5)nc4c(F)c(-c5cccc6cccc(Cl)c56)ncc34)C2)N1` (stereo not drawn) [Example 284, 7-(7-(8-chloronaphthalen-1-yl)-8-fluoro-2-((hexahydro-1H-pyrrolizin-7a-yl)methoxy)pyrido[4,3-d]pyrimidin-4-yl)-1,3,7-triazaspiro[4.5]decan-2-one] here?
Its IC50 is 0.05 µM.

And the IC50 (KRas G13D)?
Its IC50 is 0.054 µM.

With `CCc1cccc2cccc(-c3ncc4c(N5CCCC(CS(N)(=O)=O)C5)nc(OCC56CCCN5CCC6)nc4c3F)c12` (stereo not drawn) [Example 285, 1-(1-(7-(8-ethylnaphthalen-1-yl)-8-fluoro-2-((tetrahydro-1H-pyrrolizin-7a(5H)-yl)methoxy)pyrido[4,3-d]pyrimidin-4-yl)piperidin-3-yl)methanesulfonamide] as the molecule, how does the IC50 (KRas Q61H) read?
The IC50 was 0.293 µM.

And the IC50 (KRas G13D)?
The IC50 was 0.447 µM.

With `CCc1cccc2cccc(-c3ncc4c(N5CCCC6(CNC(=O)C6)C5)nc(OCC56CCCN5CCC6)nc4c3F)c12` (stereo not drawn) [Example 286, 7-(7-(8-ethylnaphthalen-1-yl)-8-fluoro-2-((hexahydro-1H-pyrrolizin-7a-yl)methoxy)pyrido[4,3-d]pyrimidin-4-yl)-2,7-diazaspiro[4.5]decan-3-one] as the molecule, how does the IC50 (KRas Q61H) read?
The IC50 was 0.555 µM.

What about the IC50 (KRas G13D) of the same molecule?
The IC50 was 0.498 µM.

What does the source list for `CCc1cccc2cccc(-c3ncc4c(NCc5cn[nH]c5)nc(OCC56CCCN5CCC6)nc4c3F)c12` [Example 287, N-((1H-pyrazol-4-yl)methyl)-7-(8-ethylnaphthalen-1-yl)-8-fluoro-2-((hexahydro-1H-pyrrolizin-7a-yl)methoxy)pyrido[4,3-d]pyrimidin-4-amine]?
IC50 (KRas Q61H): 1.16 µM; IC50 (KRas G13D): 0.423 µM

Which results are given for `CCc1cccc2cccc(-c3ncc4c(N5CCCC6(CC(=O)N6)C5)nc(OCC56CCCN5CCC6)nc4c3F)c12` (stereo not drawn) [Example 288, 6-(7-(8-ethylnaphthalen-1-yl)-8-fluoro-2-((hexahydro-1H-pyrrolizin-7a-yl)methoxy)pyrido[4,3-d]pyrimidin-4-yl)-1,6-diazaspiro[3.5]nonan-2-one]?
IC50 (KRas Q61H): 0.113 µM; IC50 (KRas G13D): 0.071 µM

With `CCc1cccc2cccc(-c3ncc4c(N5CCOCC(CO)C5)nc(OCC56CCCN5CCC6)nc4c3F)c12` (stereo not drawn) [Example 289, (4-(7-(8-ethylnaphthalen-1-yl)-8-fluoro-2-((hexahydro-1H-pyrrolizin-7a-yl)methoxy)pyrido[4,3-d]pyrimidin-4-yl)-1,4-oxazepan-6-yl)methanol] as the molecule, how does the IC50 (KRas Q61H) read?
Its IC50 is 1.07 µM.

What about the IC50 (KRas G13D) of the same molecule?
The IC50 was 0.96 µM.

`CCc1cccc2cccc(-c3ncc4c(N5CC6CC(O)C(C6)C5)nc(OCC56CCCN5CCC6)nc4c3F)c12` (stereo not drawn) [Example 290, 3-(7-(8-ethylnaphthalen-1-yl)-8-fluoro-2-((hexahydro-1H-pyrrolizin-7a-yl)methoxy)pyrido[4,3-d]pyrimidin-4-yl)-3-azabicyclo[3,2,1]octan-6-ol] was tested. Which IC50 (KRas Q61H) did it give?
The IC50 was 0.29 µM.

And the IC50 (KRas G13D)?
The IC50 was 0.236 µM.

With `CCc1cccc2cccc(-c3ncc4c(N5CCOCC(C)(O)C5)nc(OCC56CCCN5CCC6)nc4c3F)c12` (stereo not drawn) [Example 291, 4-(7-(8-ethylnaphthalen-1-yl)-8-fluoro-2-((hexahydro-1H-pyrrolizin-7a-yl)methoxy)pyrido[4,3-d]pyrimidin-4-yl)-6-methyl-1,4-oxazepan-6-ol] as the molecule, how does the IC50 (KRas Q61H) read?
Its IC50 is 0.218 µM.

What about the IC50 (KRas G13D) of the same molecule?
Its IC50 is 0.209 µM.

Which IC50 (KRas Q61H) does the source give for `CCc1cccc2cccc(-c3ncc4c(N5CC6C(=O)NC(=O)C6C5)nc(OCC56CCCN5CCC6)nc4c3F)c12` (stereo not drawn) [Example 292, 5-(7-(8-ethylnaphthalen-1-yl)-8-fluoro-2-((hexahydro-1H-pyrrolizin-7a-yl)methoxy)pyrido[4,3-d]pyrimidin-4-yl)tetrahydropyrrolo[3,4-c]pyrrole-1,3(2H,3aH)-dione] here?
The IC50 was 0.077 µM.

What about the IC50 (KRas G13D) of the same molecule?
The IC50 was 0.055 µM.

Which IC50 (KRas Q61H) does the source give for `CCc1cccc2cccc(-c3ncc4c(N5CCCC6(C5)NC(=O)NC6=O)nc(OCC56CCCN5CCC6)nc4c3F)c12` (stereo not drawn) [Example 293, 7-(7-(8-ethylnaphthalen-1-yl)-8-fluoro-2-((hexahydro-1H-pyrrolizin-7a-yl)methoxy)pyrido[4,3-d]pyrimidin-4-yl)-1,3,7-triazaspiro[4.5]decane-2,4-dione] here?
Its IC50 is 0.005 µM.

What about the IC50 (KRas G13D) of the same molecule?
Its IC50 is 0.007 µM.

Which results are given for `CCc1cccc2cccc(-c3ncc4c(N5CCCC6(CNC(=O)N6)C5)nc(OCC56CCCN5CCC6)nc4c3F)c12` (stereo not drawn) [Example 294, 7-(7-(8-ethylnaphthalen-1-yl)-8-fluoro-2-((hexahydro-1H-pyrrolizin-7a-yl)methoxy)pyrido[4,3-d]pyrimidin-4-yl)-1,3,7-triazaspiro[4.5]decan-2-one]?
IC50 (KRas Q61H): 0.014 µM; IC50 (KRas G13D): 0.016 µM

With `CCc1cccc2cccc(-c3ncc4c(N5CCCC(c6nc[nH]n6)C5)nc(OCC56CCCN5CCC6)nc4c3F)c12` (stereo not drawn) [Example 295, 4-(3-(1H-1,2,4-triazol-3-yl)piperidin-1-yl)-7-(8-ethylnaphthalen-1-yl)-8-fluoro-2-((hexahydro-1H-pyrrolizin-7a-yl)methoxy)pyrido[4,3-d]pyrimidine] as the molecule, how does the IC50 (KRas Q61H) read?
Its IC50 is 3.26 µM.

What about the IC50 (KRas G13D) of the same molecule?
The IC50 was 2.87 µM.

`CCc1c(F)ccc2cc(O)cc(-c3ncc4c(N5CCC[C@@](C)(O)C5)nc(C(=O)NC(C)CN(C)C)nc4c3F)c12` (stereo partly drawn) [Example 312, N-(1-(dimethylamino)propan-2-yl)-7-(8-ethyl-7-fluoro-3-hydroxynaphthalen-1-yl)-8-fluoro-4-((R)-3-hydroxy-3-methylpiperidin-1-yl)pyrido[4,3-d]pyrimidine-2-carboxamide] was tested. Which IC50 (KRas Q61H) did it give?
The IC50 was 0.28 µM.

And the IC50 (KRas G13D)?
The IC50 was 0.242 µM.

Which results are given for `CCc1c(F)ccc2cc(O)cc(-c3ncc4c(N5CCC[C@@](C)(O)C5)nc(OC[C@]56CCCN5[C@H](COC(=O)N(C)C)CC6)nc4c3F)c12` [Example 313, ((3S,7aR)-7a-(((7-(8-ethyl-7-fluoro-3-hydroxynaphthalen-1-yl)-8-fluoro-4-((R)-3-hydroxy-3-methylpiperidin-1-yl)pyrido[4,3-d]pyrimidin-2-yl)oxy)methyl)hexahydro-1H-pyrrolizin-3-yl)methyl dimethylcarbamate]?
IC50 (KRas Q61H): ≤ 0.002 µM; IC50 (KRas G13D): ≤ 0.002 µM

For `CCc1c(F)ccc2cc(O)cc(-c3ncc4c(N5CCC[C@@](C)(O)C5)nc(OC[C@@]56CCCN5[C@H](COC(=O)N(C)C)CC6)nc4c3F)c12` [Example 314, ((3S,7aS)-7a-(((7-(8-ethyl-7-fluoro-3-hydroxynaphthalen-1-yl)-8-fluoro-4-((R)-3-hydroxy-3-methylpiperidin-1-yl)pyrido[4,3-d]pyrimidin-2-yl)oxy)methyl)hexahydro-1H-pyrrolizin-3-yl)methyl dimethylcarbamate], which IC50 (KRas Q61H) is on record?
The IC50 was ≤ 0.002 µM.

And the IC50 (KRas G13D)?
The IC50 was ≤ 0.002 µM.
